From patent US6534516B1, “Androgen receptor modulator compounds and methods” (Ligand Pharmaceuticals Incorporated, priority 1996, dated 2003)

Amino acid sequences for entries named in this document (tags omitted). A change or cut given only in a name is not applied to a line headed by its entry.
UniProt P10275: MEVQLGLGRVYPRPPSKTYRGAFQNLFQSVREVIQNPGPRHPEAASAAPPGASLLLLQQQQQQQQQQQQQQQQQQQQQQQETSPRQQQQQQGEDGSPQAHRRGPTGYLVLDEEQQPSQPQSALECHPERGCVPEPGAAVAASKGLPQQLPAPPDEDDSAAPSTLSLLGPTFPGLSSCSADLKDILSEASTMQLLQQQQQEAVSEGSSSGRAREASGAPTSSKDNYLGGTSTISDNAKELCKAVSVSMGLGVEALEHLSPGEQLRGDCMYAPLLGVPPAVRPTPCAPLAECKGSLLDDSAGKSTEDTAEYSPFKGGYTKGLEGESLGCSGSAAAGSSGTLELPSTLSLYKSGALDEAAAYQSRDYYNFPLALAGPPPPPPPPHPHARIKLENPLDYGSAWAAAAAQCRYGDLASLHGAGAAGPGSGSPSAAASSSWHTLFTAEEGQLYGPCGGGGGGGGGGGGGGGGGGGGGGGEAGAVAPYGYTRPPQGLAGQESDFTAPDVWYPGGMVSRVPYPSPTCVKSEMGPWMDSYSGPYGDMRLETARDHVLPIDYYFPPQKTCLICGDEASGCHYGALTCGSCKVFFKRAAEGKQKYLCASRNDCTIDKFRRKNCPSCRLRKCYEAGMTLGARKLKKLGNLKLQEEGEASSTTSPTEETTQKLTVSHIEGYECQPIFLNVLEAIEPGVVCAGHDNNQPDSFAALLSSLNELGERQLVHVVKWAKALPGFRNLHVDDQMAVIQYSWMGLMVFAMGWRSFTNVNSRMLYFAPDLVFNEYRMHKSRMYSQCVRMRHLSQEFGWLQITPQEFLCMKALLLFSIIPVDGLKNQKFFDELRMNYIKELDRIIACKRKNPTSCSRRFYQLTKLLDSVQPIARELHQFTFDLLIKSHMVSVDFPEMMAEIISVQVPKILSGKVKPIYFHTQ

Legend:
[1] = tested on: immature castrated male rat; test: Immature castrated male rat model with testosterone silastic implant, ventral prostate and seminal vesicle weights; assay type: in vivo; conditions: for Seminal Vesicles weight / Ventral Prostate weight: 3 days
human AR = human AR (Homo sapiens, UniProt P10275)

In the case of `CC(O)(CS(=O)(=O)c1ccc(F)cc1)C(=O)Nc1ccc(C#N)c(C(F)(F)F)c1` (stereo not shown) [Casodex], the “Seminal Vesicles weight” value ([1]; T implant + 0.1 mg/kg oral) is reported as 31.6 ± 1.4 (5) mg/100 g body weight, the “Ventral Prostate weight” value ([1]; T implant + 0.1 mg/kg oral) is reported as 76.9 ± 3.7 (5) mg/100 g body weight and the “Seminal Vesicles weight” value ([1]; T implant + 1 mg/kg oral) is reported as 31.1 ± 0.8 (5) mg/100 g body weight. The “Ventral Prostate weight” value ([1]; T implant + 1 mg/kg oral) was 74.0 ± 6.7 (5) mg/100 g body weight, the “Seminal Vesicles weight” value ([1]; T implant + 3 mg/kg oral) was 27.0 ± 1.0 (5) mg/100 g body weight and the “Ventral Prostate weight” value ([1]; T implant + 3 mg/kg oral) was 65.8 ± 2.2 (5) mg/100 g body weight. The “Seminal Vesicles weight” value ([1]; T implant + 10 mg/kg oral) was 19.5 ± 1.2 (5) mg/100 g body weight, the “Ventral Prostate weight” value ([1]; T implant + 10 mg/kg oral) was 50.7 ± 0.9 (5) mg/100 g body weight and the “Seminal Vesicles weight” value ([1]; T implant + 30 mg/kg oral) was 12.0 ± 1.9 (5) mg/100 g body weight. The “Ventral Prostate weight” value ([1]; T implant + 30 mg/kg oral) was 37.4 ± 3.1 (5) mg/100 g body weight, the “Seminal Vesicles weight” value ([1]; T implant + 100 mg/kg oral) was 8.7 ± 1.0 (5) mg/100 g body weight and the “Ventral Prostate weight” value ([1]; T implant + 100 mg/kg oral) was 29.4 ± 1.8 (5) mg/100 g body weight.

`CC1(C)CCc2cc3c(C(F)(F)F)cc(=O)[nH]c3cc2N1` [LG120907, 1,2,3,4-Tetrahydro-2,2-dimethyl-6-trifluoromethyl-8-pyridono[5,6-g]quinoline] was tested, and the “AR Antagonist CV-1 Cells Efficacy” value (human AR) was 74 ± 2%, the “suppression of ventral prostate weight relative to castrate levels (in words)” value ([1]; 30 mg/kg) was “only partially efficacious” and the “suppression of seminal vesicle weight relative to castrate levels (in words)” value ([1]; 100 mg/kg) was “does not bring the organ weight to castrate levels”. The “suppression of ventral prostate weight relative to castrate levels (in words)” value ([1]; 100 mg/kg) was “suppression to castrate levels”.
